Like-named read-outs stand apart in the source and are kept apart here.
Columns and labels:
α1β3γ2 GABAA/BzR = α1β3γ2 GABAA/BzR (Homo sapiens, UniProt P14867+P18507); assay: Competition binding to HEK cell membranes, α1β3γ2; details: Ki α1
α2β3γ2 GABAA/BzR = α2β3γ2 GABAA/BzR (Homo sapiens, UniProt P18507+P47869); assay: Competition binding to HEK cell membranes, α2β3γ2
α3β3γ2 GABAA/BzR = α3β3γ2 GABAA/BzR (Homo sapiens, UniProt P18507+P34903); assay: Competition binding to HEK cell membranes, α3β3γ2
α5β3γ2 GABAA/BzR = α5β3γ2 GABAA/BzR (Homo sapiens, UniProt P18507+P31644); assay: Competition binding to HEK cell membranes, α5β3γ2
α6β3γ2 GABAA/BzR = α6β3γ2 GABAA/BzR (Homo sapiens, UniProt P18507+Q16445); assay: Competition binding to HEK cell membranes, α6β3γ2; details: read-out: Ki α6

| SMILES | Ki (α1β3γ2 GABAA/BzR) [nM] | Ki (α2β3γ2 GABAA/BzR; Ki α2) [nM] | Ki (α3β3γ2 GABAA/BzR; Ki α3) [nM] | Ki (α5β3γ2 GABAA/BzR; Ki α5) [nM] | Ki (α2β3γ2 GABAA/BzR; read-out: Ki α2) [nM] | Ki (α3β3γ2 GABAA/BzR; read-out: Ki α3) [nM] | Ki (α5β3γ2 GABAA/BzR; read-out: Ki α5) [nM] | Ki (α6β3γ2 GABAA/BzR) [nM] |
| --- | --- | --- | --- | --- | --- | --- | --- | --- |
| C#Cc1ccc2c(c1)C(c1ccccc1F)=N[C@@H](C)c1c(C(=O)OCC)ncn1-2 | 350 | 141 | 1240 | 16 |  |  |  |  |
| CCOC(=O)c1cc2c(cn1)[nH]c1ccccc12 [BCCE, reference compound] |  |  |  |  | 4.9 | 5.7 | 26.8 | 2700 |
